We go through one compound from ChEMBL document CHEMBL1138152, “Design and synthesis of novel hydrazide-linked bifunctional peptides as delta/mu opioid receptor agonists and CCK-1/CCK-2 receptor antagonists” (J Med Chem, 2006).

The chains behind the UniProt entries cited, without tags or fusion partners.
UniProt P41143, whole entry, looked up: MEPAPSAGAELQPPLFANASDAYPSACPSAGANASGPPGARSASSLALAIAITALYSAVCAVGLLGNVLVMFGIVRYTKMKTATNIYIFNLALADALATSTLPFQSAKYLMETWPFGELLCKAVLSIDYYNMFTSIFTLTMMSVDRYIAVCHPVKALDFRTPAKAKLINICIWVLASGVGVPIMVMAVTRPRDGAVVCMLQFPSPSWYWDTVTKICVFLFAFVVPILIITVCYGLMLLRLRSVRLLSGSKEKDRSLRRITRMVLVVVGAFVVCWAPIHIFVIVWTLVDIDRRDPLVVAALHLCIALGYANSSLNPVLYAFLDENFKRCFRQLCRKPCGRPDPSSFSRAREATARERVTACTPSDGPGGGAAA

For the assay, the target named is Delta-type opioid receptor (Homo sapiens, UniProt P41143). The experiment in a line: Inhibition of [35S]GTP-gamma-S binding to human delta opioid receptor expressed in CHO cells. The format is functional, cell-based. In short, it runs like this: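 CHO-expressed receptor membranes (10 µg) in 50 mM HEPES pH 7.4 with EDTA, 5 mM MgCl2, 30 µM GDP, DTT, 100 mM NaCl, PMSF, BSA and 0.1 nM [35S]GTPγS. Test drug at various concentrations, duplicate or triplicate, 90 min at 30 °C. Nonspecific binding with 10 µM GTPγS.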

As usually defined, the Emax is the maximal effect, on the per cent scale that the assay sets. The compound `C[C@@H](NC(=O)[C@@H](N)Cc1ccc(O)cc1)C(=O)NCC(=O)N[C@@H](Cc1ccccc1)C(=O)NNC(=O)[C@H](Cc1ccccc1)NC(=O)CNC(=O)[C@@H](C)NC(=O)[C@@H](N)Cc1ccc(O)cc1` registered an Emax of 83%.
